Binding of CDR-mutated scFvs to a peptide of the spike HR2 region

Reference: Engelhart et al. 2022, doi:10.1038/s41597-022-01779-4. File: FLAb, binding data.

All variants were tested on one target, the spike HR2 peptide PDVDLGDISGINAS (SARS-CoV-2).

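The starting antibody came from a phage panning campaign against this peptide. Variants in AAYL50 differ from the parent at up to three CDR positions; double and triple changes were sampled at random. The scFvs were displayed on barcoded MATa yeast, the peptide on MATalpha yeast. Mating (16 h, 30 °C) was followed by selection of diploids and sequencing of their barcodes. The ratio of observed to expected reads was calibrated, replicate by replicate, on BCL2-family standards whose Kd was known from biolayer interferometry. Each pool was mated in three replicate cultures.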

Parent: Ab-14, a human scFv built as VH, a 15-residue (Gly4Ser)3 linker, VL. Only the CDRs of the light chain vary.
VH: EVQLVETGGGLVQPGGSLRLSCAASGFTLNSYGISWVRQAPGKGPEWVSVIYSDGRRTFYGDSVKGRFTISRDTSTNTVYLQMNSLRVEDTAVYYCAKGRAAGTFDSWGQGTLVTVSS
VL: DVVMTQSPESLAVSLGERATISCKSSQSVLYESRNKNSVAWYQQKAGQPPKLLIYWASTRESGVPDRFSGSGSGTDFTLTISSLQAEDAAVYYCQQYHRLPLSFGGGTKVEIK

The parent's light chain CDRs are KSSQSVLYESRNKNSVA, WASTRES, QQYHRLPLS; each variant's own CDRs replace them letter for letter. Kd is apparent (estimated from mating counts) and averaged on the log scale over replicates with a signal. Smaller is tighter. An entry "no signal" has no value in the source: the pair was not observed among the diploids in any replicate. This suggests poor binding but is not conclusive.

CDR-L1	CDR-L2	CDR-L3	Kd	seen in
KSSQSVQYNSRNKNSVA	WASTRES	QQYHRLPLS	6.2 nM	3 of 3
NSSQSVLYEHRNKNSVA	WASTRES	QQYHRLLLS	54 nM	3 of 3
ISSQSVLYESRNKNSVA	DASTREP	QQYHRLPLS	730 pM	3 of 3
KSSQSVLYGSRNKNSVA	WESTVES	QQYHRLPLS	60 µM	2 of 3
KSSQSVLYKSRNKNSVV	WGSTRES	QQYHRLPLS	no signal	0 of 3
KSSPSVLDESRNKNSVS	WASTRES	QQYHRLPLS	6.2 µM	3 of 3
KSSQMVLYESRNKNSVP	WASTVES	QQYHRLPLS	no signal	0 of 3
KSSQSVLYNSRNSNLVA	WASTRES	QQYHRLPLS	11 µM	1 of 3
KSSQSVLYESRNKNSVA	WASTRES	QQDHRPALS	no signal	0 of 3
KSSQSVLYESTNKNSVW	WASTHES	QQYHRLPLS	51 µM	1 of 3
KSSQSVLYESRHKESVA	WASTRES	QQYHRLPLS	220 nM	3 of 3
KSSQSVLYESRNKNSVA	WKSTRES	QQYHCLPLF	no signal	0 of 3
KSSQSVWYESRCKNSVA	WTSTRES	QQYHRLPLS	46 nM	3 of 3
KSSQSVLYDSRNKNSVA	WASTRES	QQYPRLPLS	170 nM	3 of 3
KSSQSVLKESRWKNSVA	WASTRES	CQYHRLPLS	55 µM	2 of 3
KSSQSVLYESCNKNSVA	WADTREP	QQYHRLPLS	11 nM	3 of 3
KSSQSVLYESRNKNSVA	WASTRPR	QQYIRLPLS	1.2 µM	3 of 3
KSSQEVVYESRNKNSVA	WASTRES	PQYHRLPLS	49 µM	1 of 3
KSSQSVPYEIRTKNSVA	WASTRES	QQYHRLPLS	35 nM	3 of 3
KSSQSYLYESYNKNSVA	WASTRES	QQYHRLPYS	2.7 µM	1 of 3
KSSQSRLYESRNKNSVA	WASTRES	QQYHRLPLL	1.4 µM	3 of 3
KSSASVLYESRNKQSVA	WASTRES	QQYHRLPPS	no signal	0 of 3
KSSQSVLYEDRNKNSVD	WNSTRES	QQYHRLPLS	560 nM	1 of 3
KSSQMVLYESRNKSSVA	WASTRAS	QQYHRLPLS	69 nM	3 of 3
KSSQKVLYESRNKNSVA	PASTRES	QWYHRLPLS	970 nM	1 of 3
KSSQSVLYESRKKNMVA	WASTRES	QNYHRLPLS	1.4 µM	1 of 3
KSSQDVLYESRNKNSVA	WASTRED	QQYHRLPLS	2.0 nM	3 of 3
KSSQSVLYESRNKNSVA	WASDRES	QQYHRLPLG	30 nM	3 of 3
KSSQSVLYESRNKNWVN	WASTRES	QQYHRLDLS	100 µM	2 of 3
KSSQNVLYESRNKNSVA	WASTRES	QIYHRLPLY	380 nM	3 of 3
KSSQSVNYESRNKNSVA	WASTMES	QQYHRLPSS	3.6 µM	1 of 3
FSSQEVLYESRNKNSVA	WASTRES	QQYHRLSLS	35 nM	3 of 3
KSSQSVLYESRNKNSVA	WASTRES	QQYKRLDVS	no signal	0 of 3
KRSQSVLYESRNKNSVA	WASTREK	QQYHRLPGS	19 µM	2 of 3
GSSQSVLYEWRNKNSVA	WASTRES	GQYHRLPLS	290 nM	2 of 3
KSSQSVAYESRNKSSVA	WAMTRES	QQYHRLPLS	7.5 µM	2 of 3
ISSQSVLYESRNKNSHA	WASTRES	QQCHRLPLS	840 nM	1 of 3
KISQSVLYESYNKNSVA	WASTRES	EQYHRLPLS	no signal	0 of 3
KSSASVLYESRNKNSVA	WASTRES	QQYHKLPLS	13 nM	3 of 3
KSSDSVLYESRNKNSVA	WASTTVS	QQYHRLPLS	25 nM	3 of 3
KSSQSVLYESRNKNSVA	WASTRES	QQYHALCLS	no signal	0 of 3
KSSQSVLYESRQMNSVA	WASTRES	QEYHRLPLS	110 nM	3 of 3
KSSGSVLYESRNKNSVA	WASTRES	NQYHRLPLF	1.3 µM	1 of 3
KSSHSVLYESRNKNSVW	WASTYES	QQYHRLPLS	85 µM	1 of 3
KSSQSVLYESREKNSVA	QASTREK	QQYHRLPLS	6.2 nM	3 of 3
KSSQSVLYESRNFNSVA	WASTRES	QQYHVKPLS	no signal	0 of 3
KSSGSVLYELRNKNSVA	WASTRES	QQYHRLPLT	no signal	0 of 3
KSSQSVLYESRNKNSVA	WASTRED	QLYHRLPLT	no signal	0 of 3
KSSQSVLYESRNTNSVA	WASTRES	QIYHRCPLS	no signal	0 of 3
KSSQSVSYESRNKNSVA	WASTRES	QQYHRSILS	4.6 µM	1 of 3
KSSWWVLYESRNKNSVA	WAFTRES	QQYHRLPLS	no signal	0 of 3
KSSQNVLYESRNKNFVA	WAPTRES	QQYHRLPLS	no signal	0 of 3
KSSQSVLYESRNSNLVN	WASTRES	QQYHRLPLS	no signal	0 of 3
KSSQSVWYESRNKNSVA	WASTREL	QQYHRLALS	840 nM	3 of 3
KSSQSVLYESRNKKSVA	WASTTES	QQYHRIPLS	no signal	0 of 3
KSSQSVLYESRNKNSVA	WASVRES	QQYHRLELS	52 nM	3 of 3
KSCQSVLYESRNKNSVA	WESTRES	QQYHRLPLC	no signal	0 of 3
PSSQSVEYESRNKNSVA	WASTRRS	QQYHRLPLS	no signal	0 of 3
KSSQSGLYLSRNKNSVA	WARTRES	QQYHRLPLS	3.1 µM	2 of 3
TSSQSVLYESRNKNSVA	WASTREL	QQYHRQPLS	16 µM	1 of 3
KSSQWVLYESRNKNSVN	WAFTRES	QQYHRLPLS	50 µM	1 of 3
KSSQQVLYESRNKCSVA	WASTRES	QQYKRLPLS	890 nM	3 of 3
KSSFSVLYESRNKNSVS	WASTRES	GQYHRLPLS	14 µM	1 of 3
KSSQSVLYESRNQNSGA	WASTRES	QQYHRLPLS	no signal	0 of 3
ASSQSVLYESRNCNSVA	WASTRES	QQYHRLKLS	no signal	0 of 3
KSSQSLLYESRNKNSVA	WASTRES	QQYHRLLWS	2.0 nM	3 of 3
KSSQSVLYESWNKNSVA	SASTRES	QQQHRLPLS	100 µM	1 of 3
KSSQSVLYESNNKNSVA	WASTRES	HQYHRLPLL	no signal	0 of 3
KSSQSQLYESRNKNSVA	WHSTRES	QQYHRLPLS	no signal	0 of 3
KQSQIVLYESRNTNSVA	WASTRES	QQYHRLPLS	no signal	0 of 3
KSSQSVLYKSRNKNSVA	WACTRES	QQYHRLPLS	2.4 µM	3 of 3
DSFQSVLYEHRNKNSVA	WASTRES	QQYHRLPLS	520 nM	2 of 3
KSSQSVLYESRNKNSVA	WASTNEV	QQYHRLPYS	73 nM	3 of 3
KSSQSPGYESRNKGSVA	WASTRES	QQYHRLPLS	30 nM	3 of 3
LSSQSVLYESRNKVSVA	WASTRES	QQYHTLPLS	9.5 µM	1 of 3
KSSQPVLYESRNKNSVA	WASTRES	QQYQRLPLS	9.7 nM	3 of 3
KVSQSVLKESRNKNSVA	WASTRES	QQYHRLPLL	1.9 nM	3 of 3
KSSQSVLCESRNKNSVA	WASTRES	RDYHRLPLS	no signal	0 of 3
KSSQSVLYESRNKNSVA	WASTRES	EQTHRTPLS	260 µM	1 of 3
KSSQGVTYESRNKNSVA	WACTRES	QQYHRLPLS	1.7 µM	1 of 3

5 of these entries, quoted again:

CDR-L1	CDR-L2	CDR-L3	Kd	seen in
KSSQSVLYESRNFNSVA	WASTRES	QQYHVKPLS	no signal	0 of 3
KSSQSVNYESRNKNSVA	WASTMES	QQYHRLPSS	3.6 µM	1 of 3
KSSQSVLYESRNKNWVN	WASTRES	QQYHRLDLS	100 µM	2 of 3
PSSQSVEYESRNKNSVA	WASTRRS	QQYHRLPLS	no signal	0 of 3
KSSQSGLYLSRNKNSVA	WARTRES	QQYHRLPLS	3.1 µM	2 of 3

Empty control strains, which show no peptide, gave a signal in 18% of pairings with library AAYL50; the median was 15 µM and 95% of these signals were weaker than 970 nM. No background was subtracted. In this assay the parent's reference entry averaged 4.4 nM; its copy inside this library read 48 nM.